# According to patent US20210253511A1, “COMPOUNDS AND USES FOR THE TREATMENT AND PREVENTION OF DISEASES AND CONDITIONS ASSOCIATE WITH OR AGGREVATED BY IMPARED MITOPHAGY” (Yissum Research Development Company of The Hebrew …, priority 2018, published 2021):
# System: C. elegans
# Conditions: 0.25 and 4 mM; no PQ
smiles,measurement,value
"NCCCCCCCCCCCCN [1,12-Diaminododecane]",viability of worms not exposed to PQ,did not change the viability
